Laboratory results reported in patent US8716029B1, “Carbon nanotube sensors employing synthetic multifunctional peptides for surface functionalization” (dated 2014).

Assays:
[1] = Bare SWNT-FET device response to vapors (source-drain current); settings: saturated vapor at 25° C., 1 atm: TNT 12 ppb, RDX 6.6 ppt, HPT 2100 ppm; gate and source-drain bias −0.5 and 0.2V
Protocol: (§1) To test the response of the device in a gaseous environment, the SWNT-FET device was exposed to TNT (12 ppb), RDX (6.6 ppt), and HPT (2100 ppm) vapors in a chamber saturated with each vapor at 25° C., 1 atm. The response of the SWNT-FET device was monitored by tracking the source-drain current (ISD). For example, a 4-probe station (MMR) equipped with a Keithley semiconductor parameter analyzer (SCS4200) may be used. As the device was exposed to the three chemicals, the source-drain current was monitored at a gate and source-drain bias voltage of −0.5 and 0.2V, respectively. Because of variations in the vapor pressure at the given experimental conditions, the selectivity of the functionalized SWNT-FET device was tested by comparing its response to that of the bare SWNT-FET device upon exposure to each chemical compound in turn.
FIG. 3 is a graph of the response of the bare SWNT-FET device to TNT 310 (circles), RDX 320 (triangles), and HPT 330 (squares). After introduction of each respective vapor 340 into the chamber, the ISD of the bare SWNT-FET decreased upon exposure to both TNT 310 and HPT 330 but remained virtually unchanged upon exposure to RDX 320.

[2] = test system: P1ASP1C-functionalized SWNT-FET device; test: P1ASP1C-functionalized SWNT-FET device response to vapors (source-drain current); settings: saturated vapor at 25° C., 1 atm: TNT 12 ppb, RDX 6.6 ppt, HPT 2100 ppm; gate and source-drain bias −0.5 and 0.2V
Protocol: as §1
FIG. 4 is a graph of the response of the P1ASP1C-functionalized SWNT-FET device to TNT 410 (circles), RDX 420 (triangles), and HPT 430 (squares). After introduction of each respective vapor 440, the ISD of the functionalized SWNT-FET was monitored as before. Upon exposure to RDX 420, the ISD remained virtually unchanged, just as it had done in FIG. 3 with the bare SWNT-FET.

Row | Molecule | change of source-drain current (ISD) of bare SWNT-FET upon vapor exposure [1] | change of source-drain current (ISD) of P1ASP1C-functionalized SWNT-FET upon vapor exposure [2]
1 | cyclotrimethylenetrinitramine | remained virtually unchanged | remained virtually unchanged
2 | Cc1c([N+](=O)[O-])cc([N+](=O)[O-])cc1[N+](=O)[O-] | decreased | marked increase

This is a selection: effects in other tests are not listed, and their absence says nothing.
